# Measured affinities in a library of Ab-95 light chain variants

From the AlphaSeq antibody data of Engelhart et al. 2022 (doi:10.1038/s41597-022-01779-4), copy in the FLAb collection.

The target is the same throughout: PDVDLGDISGINAS, from the HR2 region of SARS-CoV-2 spike.

Ab-95 is the parent antibody, in scFv form: VH, then the linker GGGGSGGGGSGGGGS, then VL. The heavy chain is unchanged in all variants.
VH: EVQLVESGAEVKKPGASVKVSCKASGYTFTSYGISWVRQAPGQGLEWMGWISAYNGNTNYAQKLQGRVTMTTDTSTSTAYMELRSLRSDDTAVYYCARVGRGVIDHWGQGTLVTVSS
VL: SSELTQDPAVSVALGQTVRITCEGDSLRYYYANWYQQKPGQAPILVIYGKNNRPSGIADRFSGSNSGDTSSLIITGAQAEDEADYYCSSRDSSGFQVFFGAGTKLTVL

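Variants in AAYL52 differ from the parent at up to three CDR positions; double and triple changes were sampled at random. In AlphaSeq, yeast of one mating type display the scFv and yeast of the other type display the target. Binding brings cells together so that they mate, and sequencing counts the barcode pairs among the diploids. The ratio of observed to expected reads was calibrated, replicate by replicate, on BCL2-family standards whose Kd was known from biolayer interferometry. Each pool was mated in three replicate cultures.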

Positions count from residue 1 of the parent VL; R28V puts V in place of R.
Values are apparent Kd, the geometric mean of the replicates that gave a signal; lower means stronger binding.
Where no diploid with the target was found in any replicate, the entry reads "not detected": below detection, most likely a poor binder, though not proof of it.
The list is sorted by this average, lowest first, undetected variants last.
For reference, the parent read 200 nM as the reference entry and 180 nM as a member of this library.

{"changes": "R28V+Y30E+S55H", "apparent Kd": "54 nM", "seen in": "3 of 3", "signal with controls": "0 of 9"}
{"changes": "R28W+Y29A+Y30P", "apparent Kd": "93 nM", "seen in": "3 of 3", "signal with controls": "2 of 9"}
{"changes": "D25A+R53S+S55I", "apparent Kd": "150 nM", "seen in": "3 of 3", "signal with controls": "4 of 9"}
{"changes": "S93K+G94C", "apparent Kd": "260 nM", "seen in": "3 of 3", "signal with controls": "1 of 9"}
{"changes": "S26A+Y30W+Q96Y", "apparent Kd": "310 nM", "seen in": "3 of 3", "signal with controls": "7 of 9"}
{"changes": "L27N+A32C+G49C", "apparent Kd": "750 nM", "seen in": "3 of 3", "signal with controls": "5 of 9"}
{"changes": "D25I+K50P+S88Y", "apparent Kd": "1.9 µM", "seen in": "3 of 3", "signal with controls": "3 of 9"}
{"changes": "S26H+D91T+Q96M", "apparent Kd": "1.9 µM", "seen in": "3 of 3", "signal with controls": "3 of 9"}
{"changes": "S55I+D91Q+S92L", "apparent Kd": "2.8 µM", "seen in": "3 of 3", "signal with controls": "2 of 9"}
{"changes": "D25E+A32Q+P54W", "apparent Kd": "2.9 µM", "seen in": "1 of 3", "signal with controls": "6 of 9"}
{"changes": "E23K+S93V", "apparent Kd": "3.3 µM", "seen in": "3 of 3", "signal with controls": "5 of 9"}
{"changes": "D25W+G49A+R53H", "apparent Kd": "3.7 µM", "seen in": "1 of 3", "signal with controls": "2 of 9"}
{"changes": "E23A+L27T+Y29R", "apparent Kd": "4.5 µM", "seen in": "3 of 3", "signal with controls": "4 of 9"}
{"changes": "E23W+R53I+S88P", "apparent Kd": "5.8 µM", "seen in": "3 of 3", "signal with controls": "2 of 9"}
{"changes": "L27R+Y31L+K50C", "apparent Kd": "6.7 µM", "seen in": "1 of 3", "signal with controls": "3 of 9"}
{"changes": "L27W+N33F+N51D", "apparent Kd": "8.2 µM", "seen in": "2 of 3", "signal with controls": "0 of 9"}
{"changes": "E23N+Y31L+S93V", "apparent Kd": "10 µM", "seen in": "2 of 3", "signal with controls": "1 of 9"}
{"changes": "S26H+L27G+F95R", "apparent Kd": "12 µM", "seen in": "3 of 3", "signal with controls": "0 of 9"}
{"changes": "L27S+G49I+Q96I", "apparent Kd": "13 µM", "seen in": "1 of 3", "signal with controls": "2 of 9"}
{"changes": "G24C+K50P+Q96M", "apparent Kd": "16 µM", "seen in": "2 of 3", "signal with controls": "1 of 9"}
{"changes": "L27F+Y29K+V97F", "apparent Kd": "17 µM", "seen in": "1 of 3", "signal with controls": "2 of 9"}
{"changes": "S26D+G49V+S55C", "apparent Kd": "31 µM", "seen in": "2 of 3", "signal with controls": "1 of 9"}
{"changes": "E23P+N51C+P54Y", "apparent Kd": "130 µM", "seen in": "1 of 3", "signal with controls": "4 of 9"}
{"changes": "Y31Q+N33F+Q96D", "apparent Kd": "not detected", "seen in": "0 of 3", "signal with controls": "1 of 9"}
{"changes": "S26R+Y31V+D91I", "apparent Kd": "not detected", "seen in": "0 of 3", "signal with controls": "4 of 9"}
{"changes": "Y31W+A32G+G49N", "apparent Kd": "not detected", "seen in": "0 of 3", "signal with controls": "3 of 9"}
{"changes": "K50W+N52P", "apparent Kd": "not detected", "seen in": "0 of 3", "signal with controls": "3 of 9"}
{"changes": "S26R+R53N+R90G", "apparent Kd": "not detected", "seen in": "0 of 3", "signal with controls": "2 of 9"}

Excerpt, the first 2 entries:

changes,apparent Kd,seen in,signal with controls
R28V+Y30E+S55H,54 nM,3 of 3,0 of 9
R28W+Y29A+Y30P,93 nM,3 of 3,2 of 9

Background: pairings of library AAYL52 with three empty control strains gave a value in 28% of cases (median 8.2 µM, 5th percentile 800 nM). Values in that range, when seen in few replicates, are hard to tell from nonspecific mating. Also given: how often the same scFv was detected with the empty control strains.